# Literature values in patent publication US20040198789A1, “Lercanidipine/ARB/diuretic therapeutic combinations” (Recordati Ireland Limited, priority 2003, published 2004).
# Target: AT1 receptor (Homo sapiens, UniProt P30556)
# Settings: cited from earlier work
row,Structure (SMILES),greater affinity for AT1 receptor compared to AT2 receptor
1,"CCCc1nc2c(C)cc(-c3nc4ccccc4n3C)cc2n1Cc1ccc(-c2ccccc2C(=O)O)cc1 [Telmisartan, 4′-[1,4′-dimethyl-2[-propyl[2,6′-bi-1H-benzimidazol]-1′-yl)methyl]-[1,1′-biphenyl]-2-carboxylic acid]",> 3000 fold
2,"CCCCc1nc(Cl)c(CO)n1Cc1ccc(-c2ccccc2-c2nnn[nH]2)cc1.[K] [losartan, 2-butyl-4-chloro-1-[p-(o-1H-tetrazol-5-ylphenyl)-benzyl]imidazole-5-methanol monopotassium salt]",about 1000 fold
3,"CCCc1nc(C(C)(C)O)c(C(=O)O)n1Cc1ccc(-c2ccccc2-c2nnn[nH]2)cc1 [olmesartan, 4-(1-hydroxy-1-methylethyl)-2-propyl-1-[p-(o-1H-tetrazol-5-ylphenyl)benzyl]imidazole-5-carboxylic acid]","more than 12,500 fold"
4,"CCCCC(=O)N(Cc1ccc(-c2ccccc2-c2nnn[nH]2)cc1)[C@H](C(=O)O)C(C)C [valsartan, N-(1-oxopentyl)-N-[[2′-(1H-tetrazol-5-yl)[1,1′-biphenyl]-4-yl]methyl]-L-valine]","about 20,000 fold"
